## scFv variants of Ab-14 (light chain) against a SARS-CoV-2 spike peptide

Values reported by Li et al. 2023, doi:10.1038/s41467-023-39022-2 (FLAb copy).

Target: peptide PDVDLGDISGINAS, taken from heptad repeat 2 (HR2) of SARS-CoV-2 spike.

The variants keep the heavy chain, the linker and the frameworks of Ab-14 (scFv order VH, a (GGGGS)3 linker, VL).
VH: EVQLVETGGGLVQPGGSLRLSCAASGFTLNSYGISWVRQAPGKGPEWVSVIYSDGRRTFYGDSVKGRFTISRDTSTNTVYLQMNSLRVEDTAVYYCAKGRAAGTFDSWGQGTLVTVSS
VL: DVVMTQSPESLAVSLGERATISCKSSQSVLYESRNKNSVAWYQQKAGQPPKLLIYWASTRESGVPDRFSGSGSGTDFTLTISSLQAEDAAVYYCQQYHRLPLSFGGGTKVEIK

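This is the validation round: designs drawn from the data on random variants, tested in the same kind of assay. Their group label is 14L_GP_HC (GP: Gaussian process model; HC: hill climbing; a sequence that several methods proposed may carry one label only). The assay is AlphaSeq: two haploid yeast populations carry antibody and antigen on their surface. The frequency of each diploid, read from paired DNA barcodes, reflects how well the two displayed proteins bind. A regression on co-assayed BCL2-family reference pairs converts the normalised counts of each replicate to an apparent Kd. Each pool was mated in six replicate cultures.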

The parent's light chain CDRs are KSSQSVLYESRNKNSVA, WASTRES, QQYHRLPLS; each variant's own CDRs replace them letter for letter.
Scale: log10 of Kd in nM, estimated from mating counts; low values are strong binders.
Replicates are averaged; those with no signal do not enter the mean.
An entry "n.d." has no value in the source: the pair was not observed among the diploids in that replicate. This suggests poor binding but is not conclusive.
As a blank, each scFv also met three strains without target: over all light chain designs, 4% of these pairings were detected, typically at 2.64 and seldom below 1.59. For each scFv, signals with the empty controls are counted beside the result, with their mean in brackets.
Values of this round are not directly comparable with the first-round values of the same sequences.
In the paper, a design with two or fewer of six values counts as a poor binder.
Of ten entries with the parent sequence, four were seen in most replicates (averages 0.34 to 2.37), three in one and three in none, so single entries are noisy.

| CDR-L1 | CDR-L2 | CDR-L3 | log10 Kd, replicates | mean log10 Kd (nM) | control signals |
|---|---|---|---|---|---|
| KSSQSAAYESRNKNSVA | GASTRES | QQYHRLPLS | 0.25 0.26 0.02 0.13 0.12 0.23 | 0.17 | 0/18 |
| KISISYLYESRNENSVA | EASTREQ | QQYHRLPLS | 0.25 0.08 0.26 0.01 0.15 0.17 | 0.15 | 0/18 |
| KLRQSQLYESRNPNSVA | NASTRES | QQYHRLPLS | -0.08 -0.26 -0.45 -0.49 -0.42 -0.29 | -0.33 | 3/18 (2.98) |
| KVSPSQLYESRNKNSVA | QASTRES | QQYHRLPLS | 0.17 0.07 -0.10 -0.22 0.03 -0.05 | -0.02 | 0/18 |
| KSSQSVDGESRNKNSVA | DASTRES | QQYHRLPLS | 0.45 0.44 0.11 0.43 0.35 0.42 | 0.37 | 0/18 |
| KSSQSYLYESMNKNSVA | NASTRES | QQYHRLPLS | 0.05 -0.05 -0.03 -0.18 -0.10 0.07 | -0.04 | 2/18 (4.01) |
| KQSESVLQESRNKNSVA | DASTRES | QQYHRLPLS | -0.37 -0.35 -0.35 -0.69 -0.59 -0.38 | -0.46 | 0/18 |
| KSSQSVQFESRNKNSVA | DASTRES | QQYHRLPLS | 0.47 0.21 0.33 0.01 0.21 0.32 | 0.26 | 1/18 (3.25) |
| KSSSSVLYESNNKNSVA | HASTRED | QQYHRLPLS | 0.34 0.61 0.12 0.20 0.24 0.53 | 0.34 | 1/18 (3.42) |
| KFLQSVLYESRNKNSVA | HASTREQ | QQYHFLPLS | 1.23 1.05 0.69 1.12 0.93 0.98 | 1.00 | 0/18 |
| KLGQGVLYESRNWNSVA | GASTRES | QQYHRLPLS | 0.46 0.10 0.24 0.13 0.14 0.29 | 0.23 | 2/18 (4.17) |
| KFSQSVLYESRQKNSVA | EASTRES | QQYHRLPLS | -0.30 -0.38 -0.74 -0.38 -0.52 -0.35 | -0.44 | 2/18 (2.21) |
| KLEQSTLYESRNQNSVA | NASTRES | QQYHRLPLS | 0.24 -0.41 -0.11 -0.16 0.10 -0.01 | -0.06 | 1/18 (1.81) |
| KLSQSVLYDSQNKNSVA | WASTRES | QQYHRLPLS | 0.40 0.11 -0.08 -0.14 -0.04 0.29 | 0.09 | 0/18 |
| KSSISLLYESRNKNSVA | AASTRES | QQYHRLPLS | n.d. n.d. n.d. n.d. n.d. n.d. | n.d. | 0/18 |
| KLRQSTLYESRNPNSVA | MASTRES | QQYHRLPLS | 0.58 0.63 0.46 0.13 0.45 0.68 | 0.49 | 3/18 (2.96) |
| KFSQSDLYESRTKNGVA | NASTRES | QQYHRLPLS | 0.47 0.90 -0.37 -0.60 0.30 0.24 | 0.16 | 0/18 |
| KVLQSVLYESRNFNSVA | HASTRED | QQYHRLPLS | 0.31 0.30 0.22 -0.38 0.04 0.40 | 0.15 | 1/18 (4.07) |
| HSSPSVLYESRNTNSVA | NASTRES | QQYHRLPLS | 0.86 0.70 0.52 0.53 0.55 0.71 | 0.65 | 0/18 |
| HVSPSVLYESRNKNSVA | NASTRES | QQYHRLPLS | -0.40 -0.45 -0.14 -0.41 -0.38 -0.59 | -0.39 | 0/18 |
| KAVQSVLYESRNKNSVA | GASTRES | QQYHRLPLI | 0.98 0.52 0.94 0.87 0.70 0.88 | 0.82 | 0/18 |
| KLLQSVLYESRMKNSVA | HASTRED | QQYHRLPLS | 0.22 0.13 -0.02 -0.13 -0.10 0.22 | 0.05 | 2/18 (2.98) |
| KSLQSVDYESRNFNSVA | HASTRED | QQYHRLPLS | 0.81 0.53 0.33 0.56 0.68 0.84 | 0.62 | 0/18 |
| KWLQSQEYESRNKNSVA | HASTRED | QQYHALPLS | 0.56 -0.11 0.14 -0.03 0.71 0.37 | 0.28 | 0/18 |
| KLRQSTLYESRNPNSVA | EASTRES | QQYHRLPLS | 0.70 0.56 0.61 0.83 0.14 0.84 | 0.61 | 0/18 |
| HSSPSVWYESRNKNSVA | NASTREE | QDYHRLPLS | 0.22 0.54 0.22 0.05 0.26 0.27 | 0.26 | 2/18 (2.00) |
| KFSDSVLLESRQKNSVA | NASTRES | QQYHRLPLS | -0.01 0.83 0.14 0.03 -0.35 0.56 | 0.20 | 0/18 |
| KSQQSVLYESRNKNSVA | HASTRED | QQYHRLPLS | 0.02 -0.04 -0.11 -0.23 -0.23 0.02 | -0.10 | 2/18 (2.70) |
| KMSQSVLFESRNKNSVA | DASTRES | QQYHRLPLS | 0.13 -0.08 -0.31 -0.27 -0.29 0.04 | -0.13 | 1/18 (3.23) |
| KVRQSTLYESRNKNSVA | YASTRES | QQYHRLPLS | 0.38 0.37 0.45 0.46 0.23 0.47 | 0.39 | 2/18 (2.57) |
| HLSWVNLYESRNKNSVA | NASTRES | QQYHRLPLS | -0.05 -0.13 0.01 -0.46 -0.18 0.15 | -0.11 | 0/18 |
| KLEQSIPYESRNKNSVA | NASTRES | QQYHRLPLS | 0.12 -0.12 -0.27 -0.16 -0.10 -0.03 | -0.09 | 0/18 |
| KSSQSVDSESRNKNSVA | DASTRES | QQYHRLPLS | 0.25 0.08 0.05 -0.03 0.01 0.35 | 0.12 | 1/18 (2.45) |
| KLPWSTLYESRQKNSVA | NASTRES | QQYHRLPLS | -0.06 -0.16 -0.22 -0.21 -0.20 -0.03 | -0.15 | 0/18 |
| HLSDSVLYESRNKNSVA | NASTRES | QQYHRLPLK | -0.31 -0.11 -0.25 -0.43 -0.27 -0.09 | -0.24 | 0/18 |
| KSSQSFLYESRNKNSVA | GASTRES | QTYHRLTLS | n.d. 1.14 1.14 1.05 1.08 2.36 | 1.35 | 0/18 |
| KLEQQTLYESRNKNSVA | WASTREE | QQYHRLPLS | 3.32 0.28 0.50 1.38 0.79 0.82 | 1.18 | 0/18 |
| KSYISNLYESRNKNSVA | EASTRES | QQYHRLPLS | 0.67 0.68 0.46 0.55 0.65 0.68 | 0.62 | 0/18 |
| KSSQSVGGEQRNKNSVA | DASTRES | QQYHRLPLS | 0.39 0.35 0.44 0.35 0.29 0.67 | 0.42 | 0/18 |
| KSSQSYLYESRNKNSVA | EASTRES | QQYHRLPLM | 0.34 -0.11 -0.02 0.17 0.14 0.12 | 0.11 | 0/18 |
| KTGQGVDYESRNKNSVA | GASYRES | QQYHRLPLS | -0.04 0.02 -0.03 0.08 -0.10 -0.20 | -0.04 | 0/18 |
| KMSQSVLMESRNKNSVA | DASQRES | QQYHRLPLS | -0.37 -0.53 -0.64 -0.44 -0.46 -0.34 | -0.46 | 0/18 |
| KSSISYLYESRNKNSVA | SASTRES | QQYHRLPLS | 1.97 0.82 0.82 0.45 0.69 0.90 | 0.94 | 1/18 (2.88) |
| KSSISGLYESLMKNSVA | EASTRES | QQYHRLPLS | 0.24 0.30 -0.01 0.08 0.18 0.34 | 0.19 | 1/18 (2.44) |
| KYYPSYLYESRNKNSVA | QASTRES | QQYHQLPLS | 0.83 1.29 0.69 0.90 0.65 0.85 | 0.87 | 0/18 |
| KASQSWLYESRNKNSVA | GASSRES | QQYHRLPLS | -0.67 -0.55 -1.05 -0.99 -1.21 -0.74 | -0.87 | 0/18 |
| KFSISYLYESRNENSVA | EASTREQ | QQYHRLPLS | -0.29 -0.23 0.03 -0.50 0.29 0.76 | 0.01 | 0/18 |

4 of these entries, quoted again:

CDR-L1,CDR-L2,CDR-L3,"log10 Kd, replicates",mean log10 Kd (nM),control signals
KFSQSVLYESRQKNSVA,EASTRES,QQYHRLPLS,-0.30 -0.38 -0.74 -0.38 -0.52 -0.35,-0.44,2/18 (2.21)
KSSISLLYESRNKNSVA,AASTRES,QQYHRLPLS,n.d. n.d. n.d. n.d. n.d. n.d.,n.d.,0/18
KSYISNLYESRNKNSVA,EASTRES,QQYHRLPLS,0.67 0.68 0.46 0.55 0.65 0.68,0.62,0/18
KSSISGLYESLMKNSVA,EASTRES,QQYHRLPLS,0.24 0.30 -0.01 0.08 0.18 0.34,0.19,1/18 (2.44)